Assay results: patent publication US9242941B2, “Alkyl, fluoroalkyl-1,4-benzodiazepinone compounds” (BRISTOL-MYERS SQUIBB COMPANY, priority 2012, dated 2016)

Assay: human metabolic stability half-life assay
Settings: microsomes, pH 7.4

CCC[C@H](C(N)=O)[C@@H](CC(C)C)C(=O)N[C@H]1N=C(c2ccccc2)c2ccccc2N(C)C1=O [Comparative Compound 56, reference compound]
half-life at 0.5 µM: ≤ 9 min
